According to patent US9556229B2, “Modification of peptides using a bis(thioether)arylbridge approach” (priority 2012, dated 2017):

Test system: HCT116 colorectal cancer cells

CC(C)C[C@H](NC(=O)[C@H](C)NC(=O)[C@H](Cc1c[nH]c2ccccc12)NC(=O)[C@H](Cc1ccc(O)cc1)NC(=O)[C@H](CCC(=O)O)NC(=O)[C@H](C)NC(=O)[C@H](Cc1ccccc1)NC(=O)[C@H](CO)NC(=O)[C@@H](N)[C@@H](C)O)C(=O)N[C@@H](CC(C)C)C(=O)N[C@@H](CO)C(=O)N1CCC[C@H]1C(N)=O [PMI_M, reference compound]
EC50: 179 µM
